The values below come from US20020016370A1, “Exo-R-mecamylamine formulation and use in treatment” (priority 1998, published 2002).

Protein sequences, listed by entry. Tags and fused reporters are not part of them. Residues count along the entry.
UniProt P30926, 22-498: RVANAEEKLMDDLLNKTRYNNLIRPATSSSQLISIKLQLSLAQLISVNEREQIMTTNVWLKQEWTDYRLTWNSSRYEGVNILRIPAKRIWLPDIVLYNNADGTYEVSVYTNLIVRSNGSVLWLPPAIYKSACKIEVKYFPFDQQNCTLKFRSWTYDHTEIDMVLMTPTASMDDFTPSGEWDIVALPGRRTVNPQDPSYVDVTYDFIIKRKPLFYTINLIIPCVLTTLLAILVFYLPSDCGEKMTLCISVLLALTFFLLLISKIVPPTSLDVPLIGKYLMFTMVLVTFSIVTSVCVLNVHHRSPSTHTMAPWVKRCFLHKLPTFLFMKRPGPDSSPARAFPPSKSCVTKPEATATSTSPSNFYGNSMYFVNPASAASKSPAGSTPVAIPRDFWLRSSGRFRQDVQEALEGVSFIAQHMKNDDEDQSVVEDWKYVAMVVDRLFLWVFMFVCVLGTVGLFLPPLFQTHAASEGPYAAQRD
UniProt P32297, 32-505: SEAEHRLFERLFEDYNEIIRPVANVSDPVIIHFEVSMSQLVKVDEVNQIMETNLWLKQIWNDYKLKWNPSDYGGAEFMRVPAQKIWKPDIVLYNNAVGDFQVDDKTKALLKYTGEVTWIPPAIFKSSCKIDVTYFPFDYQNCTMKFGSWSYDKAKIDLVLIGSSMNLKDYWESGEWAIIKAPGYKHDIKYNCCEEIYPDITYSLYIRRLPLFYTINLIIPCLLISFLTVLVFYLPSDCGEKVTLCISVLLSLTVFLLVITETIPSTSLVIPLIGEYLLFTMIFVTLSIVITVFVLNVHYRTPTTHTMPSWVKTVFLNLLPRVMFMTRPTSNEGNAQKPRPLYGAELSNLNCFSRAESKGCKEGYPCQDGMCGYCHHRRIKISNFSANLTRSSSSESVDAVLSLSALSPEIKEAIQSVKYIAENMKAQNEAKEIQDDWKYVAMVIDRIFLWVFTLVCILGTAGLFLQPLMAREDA
UniProt P17787, 26-502: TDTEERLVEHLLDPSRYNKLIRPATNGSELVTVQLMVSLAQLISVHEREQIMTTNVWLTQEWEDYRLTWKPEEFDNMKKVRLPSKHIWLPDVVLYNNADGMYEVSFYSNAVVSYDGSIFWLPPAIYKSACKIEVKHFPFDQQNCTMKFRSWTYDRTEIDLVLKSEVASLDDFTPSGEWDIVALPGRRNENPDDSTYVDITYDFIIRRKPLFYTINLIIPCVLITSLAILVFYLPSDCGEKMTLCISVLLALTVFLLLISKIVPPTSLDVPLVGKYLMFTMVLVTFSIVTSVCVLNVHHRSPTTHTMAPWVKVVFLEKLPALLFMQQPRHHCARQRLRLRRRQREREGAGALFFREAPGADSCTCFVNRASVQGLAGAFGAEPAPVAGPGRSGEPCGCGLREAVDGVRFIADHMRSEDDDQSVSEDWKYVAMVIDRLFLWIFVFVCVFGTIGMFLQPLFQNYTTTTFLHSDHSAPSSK

One test addresses T1, human α3β4 receptors (Homo sapiens, UniProt P30926+P32297).
T1 construct: expressed in transfected cells; host or cells: Xenopus laevis oocytes injected with cRNA
Briefly: Two-electrode voltage clamp, receptors expressed in Xenopus oocytes. The format is cell-based. To be noted: no further recovery afterwards. In general terms: Two-electrode voltage clamp is typically applied to oocytes expressing channels or transporters.

The target in another test is T2, human α3β2 receptors (Homo sapiens, UniProt P17787+P32297).
T2 construct: expressed in transfected cells; host or cells: Xenopus laevis oocytes injected with cRNA
The description is as above. The format is cell-based. To be noted: 5 μM.

For the compound `CN[C@@]1(C)[C@@H]2CC[C@@H](C2)C1(C)C` [exo-S-mecamylamine], on human α3β4 receptors, the “fast phase of recovery, average duration” value is on record as 19 min. Also, the “voltage dependence of the off rate” value on human α3β2 receptors is on record as “changed significantly”.
